The values that follow come from US11083725B2 (priority 2014, dated 2021).

The test has as its system NHBE cells. Description: Biolog metabolic array: substrate use by NHBE cells with or without CA09 infection. The format is cell-based, human. Particulars: Control (uninfected) NHBE cells.

For `NCCCC(=O)O` [g-Amino Butyric Acid], the “590 nm absorbance normalized to zero hour (substrate use), 2 hr” value was found to be 1.36.
